# Reference: PMC4655192 (Neuropharmacology, 2015)
# Where “and” joins values, the source holds several entries; their conditions need not be identical. Equal values may be shown once.
# What was measured:
# [1] = test system: KOR-KO striatal membranes
# [2] = test system: MOR-KO striatal membranes
SMILES,IMAX % [1],IMAX % (WT striatal membranes),IMAX % [2],"IC50 ([1]; vs 1 μM DynB(1-9), KOR-KO) [nM]"
"NC(N)=Nc1ccc2[nH]c3c(c2c1)C[C@@]1(O)[C@H]2Cc4ccc(O)c5c4[C@@]1(CCN2CC1CC1)[C@H]3O5 [5′-GNTI, 5′-guanidinonaltrindole]",120 ± 3% and 100 ± 13%,96 ± 5% and 100 ± 9%,93 ± 10% and 87 ±10%,–
"Oc1ccc2c3c1O[C@H]1c4[nH]c5c(c4C[C@@]4(O)[C@@H](C2)N(CC2CC2)CC[C@]314)C[C@@]1(O)[C@H]2Cc3ccc(O)c4c3[C@@]1(CCN2CC1CC1)[C@H]5O4 [NorBNI, Norbinaltorphimine]",–,–,99 ± 5%,45.3 ± 10.1
